Yeast mating assay 1: variants of the scFv Ab-14

Source: Engelhart et al. 2022 (doi:10.1038/s41597-022-01779-4), MIT Lincoln Laboratory and A-Alpha Bio; data file from the FLAb repository.

Binding partner: SARS-CoV-2 spike HR2 peptide, sequence PDVDLGDISGINAS.

The variants keep the light chain, the linker and the frameworks of Ab-14 (scFv order VH, a 15-residue (Gly4Ser)3 linker, VL).
VH: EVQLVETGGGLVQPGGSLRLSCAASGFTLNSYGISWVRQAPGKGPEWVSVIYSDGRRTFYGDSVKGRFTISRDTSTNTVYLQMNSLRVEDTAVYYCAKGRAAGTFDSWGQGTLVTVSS
VL: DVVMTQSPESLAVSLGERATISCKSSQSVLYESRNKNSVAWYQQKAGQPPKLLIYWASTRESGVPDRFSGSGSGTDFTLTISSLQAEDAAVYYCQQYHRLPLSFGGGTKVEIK

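The parent was found by panning a naive human phage display library on the peptide. Variants in AAYL49 differ from the parent at up to three CDR positions; double and triple changes were sampled at random. The assay is AlphaSeq: two haploid yeast populations carry antibody and antigen on their surface. Mating (16 h, 30 °C) was followed by selection of diploids and sequencing of their barcodes. Read counts were normalised to the haploid input and turned into Kd by a linear fit to BCL2-family pairs of known affinity, for each replicate. Each pool was mated in three replicate cultures.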

The parent's heavy chain CDRs are GFTLNSYGIS, VIYSDGRRTFYGDSVK, GRAAGTFDS; each variant's own CDRs replace them letter for letter. The read-out is the apparent dissociation constant on a log10 scale (nM): the lower, the stronger. The mean shown is taken over the replicates in which the pair was detected. "nd" marks a missing value. The strain was present, yet no cells mated with the target were sequenced in that replicate, which points to weak or no binding.

CDR-H1 | CDR-H2 | CDR-H3 | log10 Kd (nM) by replicate | mean log10 Kd (nM) | signal with controls
SFTLNSYGIS | VIYSDGRRWFYGDSVK | GRAAGTFDS | nd / nd / nd | nd | 0/9
GFTLNMYGIS | VIYSDGRRTFYGDSVK | GRYGGTFDS | 1.71 / 2.02 / 1.98 | 1.90 | 1/9 (4.34)
GATLNSYGIS | VIYSDGRRVQYGDSVK | GRAAGTFDS | 4.37 / 3.47 / 2.71 | 3.52 | 1/9 (5.07)
GFTLNSYGIS | VIYHDGRRTFFGDSVK | GRAAGTNDS | nd / nd / nd | nd | 2/9 (4.15)
GFTLNSCGIS | VIYSDGRRTFQGDSVK | GRAAGTFDS | nd / nd / nd | nd | 0/9
GFTLNSYGIS | DIYSDGRRTFYKDSVK | GRAAGKFDS | 4.19 / 3.56 / 4.41 | 4.05 | 0/9
GFTLNSYGIS | VFYSWGRRTAYGDSVK | GRAAGTFDS | 2.38 / 4.26 / 5.72 | 4.12 | 3/9 (3.98)
GFTLNSYGIS | VIYSDGRRSFYGDSVK | GRAAGTFDQ | 2.27 / 1.69 / 1.86 | 1.94 | 4/9 (3.49)
EFTLNSYGIR | VCYSDGRRTFYGDSVK | GRAAGTFDS | 4.25 / nd / 4.99 | 4.62 | 4/9 (4.21)
GFTLNSYIIS | VIYSDGRRFFYGDSVK | GRAAGTFDS | nd / nd / nd | nd | 1/9 (5.22)
GFTLNQYGIS | VIMSDGRRTFYEDSVK | GRAAGTFDS | 3.89 / nd / nd | 3.89 | 1/9 (2.69)
GFTLNSYGIS | VIYSDGRRTMYGDSNK | GRAAGTFDI | 4.62 / nd / 5.80 | 5.21 | 3/9 (4.41)
QFTLNSYGIS | VLYSDGRDTFYGDSVK | GRAAGTFDS | 4.72 / nd / 2.89 | 3.80 | 2/9 (4.74)
GFTLNSYGIS | VIYSDVRRTFYGDAVK | GRAAGTFDH | nd / 4.62 / nd | 4.62 | 1/9 (3.70)
GFTLNSYGIS | VKYSDGRRTFYGDIVK | GRAAGTFVS | nd / 3.52 / 6.26 | 4.89 | 5/9 (4.44)
GFTLNSYGIS | VIYSDGRRWFYGQSVK | GRAAGTFDS | 4.07 / nd / nd | 4.07 | 4/9 (4.29)
GFRLNSYGIS | VIYSDGRRTHYGDSVK | GRAAWTFDS | 6.17 / 3.55 / nd | 4.86 | 3/9 (4.20)
GFTLNSYGIS | KIYSDGRRTFYGDSVK | GRTAGTFDH | nd / nd / nd | nd | 0/9
GFTLNSYGIS | YIYSDCRRTFYGDSVK | GRAAGTFDS | nd / nd / nd | nd | 2/9 (4.77)
TFTLNSYGIS | VIYSDGRRTFYGMSVD | GRAAGTFDS | nd / 4.96 / nd | 4.96 | 1/9 (3.37)
GDTLNSYGIS | VIYSDGRRTFYGDSVM | GRFAGTFDS | nd / 5.09 / nd | 5.09 | 1/9 (3.58)
GFTLNFYGIS | VIYSDGRRTFYGDYVK | GRAGGTFDS | nd / 3.26 / 2.74 | 3.00 | 2/9 (3.83)
GAPLMSYGIS | VIYSDGRRTFYGDSVK | GRAAGTFDS | 3.06 / 2.82 / 3.79 | 3.23 | 4/9 (4.73)
GFTLNSYGIS | VIYSDGRRTFYGDSVK | GRANGTFDS | 0.69 / 0.81 / 1.06 | 0.85 | 1/9 (2.83)
GFTLLSYGIS | VIYSDGRRTFYGGSVK | GRASGTFDS | 3.13 / 4.05 / 3.38 | 3.52 | 1/9 (3.25)
GFTHNSYGIS | VIYSDGRRWFYGDSVK | GRAAGTFDS | nd / 5.51 / 5.00 | 5.25 | 1/9 (4.31)
GDQLNSYGIS | VIYSDGRRTFYADSVK | GRAAGTFDS | 0.67 / 0.87 / 0.84 | 0.80 | 5/9 (4.53)
GSTLNSYGIS | VIYSDGRRTFYGDSVK | GRAAQTFDS | 2.24 / 2.13 / 2.24 | 2.20 | 4/9 (3.74)
GFTMTSMGIS | VIYSDGRRTFYGDSVK | GRAAGTFDS | 4.11 / 3.25 / 4.35 | 3.90 | 4/9 (4.34)
GFTLNSYGIS | VIYSDGPRTFKGDSVK | GRAEGTFDS | nd / nd / nd | nd | 1/9 (3.71)
YFTLNSYGIS | VIYSDSRRTFYGDSVK | GRAASTFDS | nd / nd / nd | nd | 0/9
QFTLNYYGIS | VIYSDGRRTFYGDSVK | GRAAGTFIS | nd / nd / nd | nd | 0/9
GFDLNSMGIS | VIYSDGRRTFYGDSVK | GAAAGTFDS | 0.83 / 1.07 / 0.96 | 0.95 | 4/9 (4.14)
GFTLNSYGIS | VIYSDGRRTFYGDSVK | GWAAQTFDS | 4.56 / 5.14 / nd | 4.85 | 0/9
GFTKNSYGIK | VIYSDGRRTFYGDSVK | GRAAGLFDS | nd / nd / nd | nd | 2/9 (3.58)
GFTSNSYGIS | VIYEDGRVTFYGDSVK | GRAAGTFDS | nd / nd / nd | nd | 1/9 (3.59)
IFTLNSYGIS | VIYSDGRRTFYGDSVK | GRWAMTFDS | nd / 4.97 / nd | 4.97 | 2/9 (4.81)
GFTLNSYGIS | VCYSDGRFTFYGDSVK | GRAAGTFDS | nd / nd / nd | nd | 0/9
GFTLNMYGIS | VIYSDGRRKMYGDSVK | GRAAGTFDS | 1.93 / 1.87 / 2.03 | 1.95 | 5/9 (4.71)
GFTLNSYGIS | VIYSDGRRKFQGDSVN | GRAAGTFDS | nd / 5.07 / 5.07 | 5.07 | 4/9 (4.03)
GFTLNSYGMS | VIYSDGRRDFYGESVK | GRAAGTFDS | nd / nd / nd | nd | 0/9
GFTLNTTGIS | VIYSDGRRTFYGDSVK | GDAAGTFDS | 4.45 / 2.52 / 3.32 | 3.43 | 1/9 (3.92)
IFTLNSYGIS | VIYSDGRRTQYGDSVK | GRAAGTFFS | 5.08 / nd / nd | 5.08 | 1/9 (3.51)
MFTLNSYGIS | VIYSDGRRRFYGDSVK | GRAAGTFDS | nd / nd / nd | nd | 0/9
GFTLNSYGIS | WIYSDGRRTFYGDSVK | GRNAGTTDS | nd / nd / nd | nd | 1/9 (3.07)
GATLNSLGIS | VIYSDGRRTFYGDSVK | YRAAGTFDS | nd / 3.51 / 4.91 | 4.21 | 3/9 (3.58)
GFWLNLYGIS | VIYSDFRRTFYGDSVK | GRAAGTFDS | nd / nd / nd | nd | 1/9 (3.86)
GFTLYSYGIS | VIYSDGRRTFYGDSVY | GRNAGTFDS | 1.98 / 1.52 / 1.65 | 1.71 | 0/9
RFTLNSYGIS | VMYSDGRGTFYGDSVK | GRAAGTFDS | nd / nd / nd | nd | 1/9 (4.43)

Empty control strains, which show no peptide, gave a signal in 15% of pairings with library AAYL49; the median was 4.06 and 95% of these signals were weaker than 2.83. No background was subtracted. Also given: how often the same scFv was detected with the empty control strains, with their mean in brackets. For reference, the parent read 0.65 as the reference entry and 4.11 (one replicate of three) as a member of this library.